The target of this experiment is Beta-2 adrenergic receptor (Homo sapiens) (UniProt P07550). In words: beta2AR agonists driving receptor internalization, dose response, cell-based, FAP fluorogen, flow cytometry, cherry pick 1 (AID 588763). As to conditions: AM2.2-beta2AR cells, 90 min; at 33 µM (top of the series).

The values below come from PubChem BioAssay AID588763 (NMMLSC, 2011).

The list shows a part of the results, in another mix than the full data. Potency and affinity values are given separately. Calls of active or inactive are those of the source. No rule for the calls is given here.

Regarding `CN(C)C(=O)c1cc([N+](=O)[O-])cc2c1-c1c(cc([N+](=O)[O-])cc1[N+](=O)[O-])C2=O`, the activation (receptor internalization) was inactive: 92.3%.
